Assay results published in ChEMBL document CHEMBL1139712, “Interaction of N1-unsubstituted and N1-benzenesulfonyltryptamines at h5-HT6 receptors” (Bioorg Med Chem Lett, 2006).

Chains of the proteins cited; added tags and fusions are not shown.
UniProt P50406, whole entry: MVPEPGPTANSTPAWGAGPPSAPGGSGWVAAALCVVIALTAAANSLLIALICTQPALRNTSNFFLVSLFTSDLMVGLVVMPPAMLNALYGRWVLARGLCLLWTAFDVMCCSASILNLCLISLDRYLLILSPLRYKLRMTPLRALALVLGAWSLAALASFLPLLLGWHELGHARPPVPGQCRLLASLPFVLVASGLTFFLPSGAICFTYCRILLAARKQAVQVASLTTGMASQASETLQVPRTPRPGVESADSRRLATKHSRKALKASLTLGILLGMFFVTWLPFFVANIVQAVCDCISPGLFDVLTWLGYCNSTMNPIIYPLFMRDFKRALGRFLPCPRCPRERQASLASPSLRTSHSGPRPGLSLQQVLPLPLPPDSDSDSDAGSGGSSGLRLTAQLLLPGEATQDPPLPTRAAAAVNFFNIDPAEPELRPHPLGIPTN

Target: 5-hydroxytryptamine receptor 6 (Homo sapiens, UniProt P50406)
Assay: Displacement of [3H]LSD from human 5HT6 receptor expressed in HEK293 cells
Assay type: cell-based

**Q.** Which Ki does the source give for `COc1ccc2[nH]cc(CCN(C)C)c2c1` [MEBUFOTENIN] here?
**A.** Its Ki is 13 nM.
